In article PMC7723054 one finds binding signal data, which are given here for 22 molecules.

Common to all, as to test: FOREST: bead pull-down of RNA structure library v1, barcode microarray; U1A/LIN28A: 20 mM HEPES pH 7.5, 80 mM KCl, 20 mM NaCl, 10% glycerol, 2 mM DTT, 0.1 ug/uL BSA, 4 C; BG4/CIRBP/DHX36: 10 mM Tris-HCl pH 7.5, 100 mM KCl (or LiCl),; high values mean tight binding
One assay deals with U1A (Homo sapiens, UniProt P09012).
The next assay has as its target T1, LIN28A (human?, UniProt Q9H9Z2 1-209).
T1 sequence: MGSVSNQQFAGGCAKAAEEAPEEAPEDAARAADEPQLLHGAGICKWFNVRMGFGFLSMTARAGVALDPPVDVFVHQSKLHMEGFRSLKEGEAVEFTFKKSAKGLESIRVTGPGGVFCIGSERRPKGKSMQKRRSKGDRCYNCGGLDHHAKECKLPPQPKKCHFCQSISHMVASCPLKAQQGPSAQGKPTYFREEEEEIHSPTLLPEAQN

The next assay has as its target T2, CIRBP (Homo sapiens, UniProt Q14011 1-172).
T2 sequence: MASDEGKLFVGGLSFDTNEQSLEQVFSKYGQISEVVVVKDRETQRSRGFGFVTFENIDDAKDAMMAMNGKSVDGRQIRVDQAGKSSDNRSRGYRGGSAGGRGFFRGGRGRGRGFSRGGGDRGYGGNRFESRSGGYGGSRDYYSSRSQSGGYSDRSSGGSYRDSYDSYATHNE

Another assay deals with T3, DHX36 (Homo sapiens, UniProt Q9H2U1 1-1008).
T3 sequence: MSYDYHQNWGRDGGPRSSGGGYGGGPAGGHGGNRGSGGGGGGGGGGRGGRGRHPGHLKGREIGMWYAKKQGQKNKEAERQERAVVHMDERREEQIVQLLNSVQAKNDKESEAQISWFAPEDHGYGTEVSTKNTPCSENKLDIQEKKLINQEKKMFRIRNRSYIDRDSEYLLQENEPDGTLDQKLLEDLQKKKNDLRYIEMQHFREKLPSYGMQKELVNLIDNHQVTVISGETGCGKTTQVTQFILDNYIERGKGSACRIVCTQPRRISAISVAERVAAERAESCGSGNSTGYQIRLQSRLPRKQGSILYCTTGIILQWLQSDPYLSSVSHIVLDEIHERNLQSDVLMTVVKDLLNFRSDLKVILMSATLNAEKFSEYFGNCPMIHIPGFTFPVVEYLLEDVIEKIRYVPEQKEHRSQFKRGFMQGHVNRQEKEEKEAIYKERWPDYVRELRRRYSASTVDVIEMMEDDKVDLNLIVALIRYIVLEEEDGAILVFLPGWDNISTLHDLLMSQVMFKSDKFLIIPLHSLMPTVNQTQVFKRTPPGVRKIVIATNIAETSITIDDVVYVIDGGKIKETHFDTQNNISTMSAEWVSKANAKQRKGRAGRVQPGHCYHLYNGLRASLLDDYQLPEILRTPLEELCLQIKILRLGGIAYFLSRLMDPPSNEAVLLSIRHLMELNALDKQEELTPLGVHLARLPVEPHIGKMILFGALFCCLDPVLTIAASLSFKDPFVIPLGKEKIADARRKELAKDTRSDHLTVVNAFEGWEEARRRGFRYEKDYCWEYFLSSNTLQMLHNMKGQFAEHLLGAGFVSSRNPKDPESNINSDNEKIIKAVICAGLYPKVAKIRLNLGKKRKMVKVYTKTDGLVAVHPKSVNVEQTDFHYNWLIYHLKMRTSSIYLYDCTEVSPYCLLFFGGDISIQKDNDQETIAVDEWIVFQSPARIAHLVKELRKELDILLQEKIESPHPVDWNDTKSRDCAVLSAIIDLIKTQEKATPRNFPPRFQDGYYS

The other results are listed elsewhere or left out.

B1: hsa-mir-6127 (structured_RNA)
RNA: GGGACCAUUACGUGAGGGAUAUUGGAUCGGUGUACGAAGUUUCAGCGAGGUGGGAAGGCUGCCCCAAAUGGCCUCUAACAUCCCUUCCAGUCUCCUCCUCGCUGAAGCUUCGUGCAC
With B1, the binding signal with U1A is 0.0164 z-score; with LIN28A, 1.47 z-score; with CIRBP, 0.33 z-score; with DHX36 it was 1.08 z-score.

B2: hsa-mir-6885 (structured_RNA)
RNA: GGGAAAGGUCGGAGCCGAAGUUGGAUUUGGUGUACGAAGUUUCAGCAAAGCCAGGGACCCUGAGAGGCUUUGCUGAAGCUUCGUGCAC
On to B2, for which the binding signal with U1A was 0.0169 z-score; in the assay with LIN28A, 0.844 z-score; with CIRBP, 0.351 z-score; in the assay with DHX36, 0.0253 z-score.

B3: hsa-mir-6748 (structured_RNA)
RNA: GGGAAGACAACCGGAUGAACACUUAGUCGGUGUACGAAGUUUCAGCUGGAUUUGAAAUGGUCCCACUCCUGACGAUCCUGCUGAAGCUUCGUGCAC
Take B3: the binding signal with U1A was 0.0225 z-score; with LIN28A, -0.306 z-score; with CIRBP, -0.15 z-score; with DHX36 it was -0.838 z-score.

B4: hsa-mir-3613 (structured_RNA)
RNA: GGGAGACAAGCAUUAUGUAUAGAGGUCCGGUGUACGAAGUUUCAGCUUGUUCGUUGCAUUUUUAGGAACAAGCUGAAGCUUCGUGCAC
For the molecule B4, the binding signal with U1A worked out at 1.67 z-score; in the assay with LIN28A, 0.559 z-score; in the assay with CIRBP, 0.346 z-score; in the assay with DHX36, 0.102 z-score.

B5: hsa-mir-6774 (structured_RNA)
RNA: GGGAACAGUCGGUCGUUUUGAAGCCCUAGGUGUACGAAGUUUCAGCCCUGUAUGUCUCCCCGCAGCACCGUCAUCGUGCUGAAGCUUCGUGCAC
For the molecule B5, the binding signal with U1A is 1.67 z-score; with LIN28A, -0.189 z-score; in the assay with CIRBP it was -1 z-score; with DHX36, 0.389 z-score.

B6: PARIS_ID40 (structured_RNA)
RNA: GGGAAUUCGACCAUGGGAACGAGCAUUCGGUGUACGAAGUUUCAGCCCUCUGGGUGCAGAGCUGAGGCACCCAGAGGGCUGAAGCUUCGUGCAC
Turning to B6, the binding signal was 0.0141 z-score with U1A, -0.499 z-score in the assay with LIN28A, -0.0816 z-score with CIRBP and -0.337 z-score with DHX36.

B7: hsa-mir-215 (structured_RNA)
RNA: GGGAGACAAUCCUGGCAACGCGAAACUAGGUGUACGAAGUUUCAGCCAGACAAUAUAGCUGAGUUUGUCUGGCUGAAGCUUCGUGCAC
For B7, the binding signal with U1A is 0.0153 z-score; with LIN28A, -0.192 z-score; with CIRBP it was -1.01 z-score; in the assay with DHX36 it was -0.8 z-score.

B8: hsa-mir-577 (structured_RNA)
RNA: GGGAACGACGUUGAUAGGCGUUAUCCCCGGUGUACGAAGUUUCAGCCCUGAUGAAUCUGAGGCCAGGGCUGAAGCUUCGUGCAC
For the molecule B8, the binding signal in the assay with U1A was 0.0178 z-score; in the assay with LIN28A, 0.561 z-score; with CIRBP, 0.134 z-score; with DHX36 it was -0.284 z-score.

B9: hsa-mir-4759 (structured_RNA)
RNA: GGGAGCGACAAGAGCUUUAAUACAUGCUGGUGUACGAAGUUUCAGCAUUAGACAGAAAAAAGUUAGACACAAAAAAUUGUGUCUAAUGCUGAAGCUUCGUGCAC
In the case of B9, the binding signal with U1A was found to be 0.0189 z-score; in the assay with LIN28A, 1.21 z-score; with CIRBP, 1.52 z-score; with DHX36, 0.02 z-score.

B10: hsa-mir-765 (structured_RNA)
RNA: GGGAAGAUCGUGCGAUCAGGUCGAGACAGGUGUACGAAGUUUCAGCAAGCCCUACGAGAAACUGGGGUUUCUGGAGCUGAAGCUUCGUGCAC
Consider B10, for which the binding signal in the assay with U1A is 0.0176 z-score; with LIN28A, 0.395 z-score; in the assay with CIRBP it was 1.55 z-score; with DHX36, -0.104 z-score.

B11: hsa-mir-4674 (structured_RNA)
RNA: GGGACACAAGGAAUGAGCUCUUUUCGUGGGUGUACGAAGUUUCAGCCACGCCGCGCCGCCGGGUCCCUCCUCCCCGGAGAGGCUGGCUGAAGCUUCGUGCAC
Turning to B11, the binding signal was 0.025 z-score with U1A, 0.776 z-score in the assay with LIN28A, 0.648 z-score with CIRBP and 0.195 z-score in the assay with DHX36.

B12: hsa-mir-548u (structured_RNA)
RNA: GGGAAACGAACGAAAUCCGGGUCGAGUCGGUGUACGAAGUUUCAGCUUUUUCUUUACUUUUAAUGGCAAAGCUGAAGCUUCGUGCAC
For B12, the binding signal was 0.0206 z-score with U1A, -1.07 z-score in the assay with LIN28A, 1.66 z-score with CIRBP and -0.537 z-score in the assay with DHX36.

B13: hsa-mir-501 (structured_RNA)
RNA: GGGAUAUACCUUGAUAGGCCCCGACCGGGGUGUACGAAGUUUCAGCGAGAGUGCUUUCUGAAUGCAAUGCGCUGAAGCUUCGUGCAC
Consider B13, for which the binding signal came to 0.0132 z-score in the assay with U1A, 0.35 z-score in the assay with LIN28A, 0.348 z-score with CIRBP and 0.139 z-score in the assay with DHX36.

B14: hsa-mir-455 (structured_RNA)
RNA: GGGAGCAUAGGGUGGCCAACUACAGAGAGGUGUACGAAGUUUCAGCCUACAUCGUGGAAGCCAGCACCAUGCAGGCUGAAGCUUCGUGCAC
As for B14, the binding signal in the assay with U1A was 0.0137 z-score; with LIN28A it was -0.31 z-score; with CIRBP, 1.13 z-score; in the assay with DHX36, 0.77 z-score.

B15: hsa-mir-5087 (structured_RNA)
RNA: GGGAAGCCAGGGUAUUAAAUAACGUGUCGGUGUACGAAGUUUCAGCCAUGUUAAGUGUUGUCCUACAGGCUGAAGCUUCGUGCAC
Take B15: the binding signal with U1A is 0.0229 z-score; in the assay with LIN28A it was -0.274 z-score; with CIRBP it was -0.167 z-score; in the assay with DHX36, 0.419 z-score.

B16: hsa-mir-6893 (structured_RNA)
RNA: GGGAAUUACCAUAGGGACCGAGACAAACGGUGUACGAAGUUUCAGCAGGGUGGAGCCCACUGUGGCUCCUGACUCAGCCCUGCUGAAGCUUCGUGCAC
With B16, the binding signal is 0.0149 z-score with U1A, 0.672 z-score with LIN28A, 0.755 z-score in the assay with CIRBP and 0.482 z-score with DHX36.

B17: hsa-mir-3156-2 (structured_RNA)
RNA: GGGACAUGCUACGCGCUAACUAUAGUGCGGUGUACGAAGUUUCAGCGGAGACACUUUCACUAUAUAUAGUGGCUCCGCUGAAGCUUCGUGCAC
In the case of B17, the binding signal with U1A is 0.0156 z-score; with LIN28A, -0.928 z-score; in the assay with CIRBP, -0.92 z-score; in the assay with DHX36, -1.1 z-score.

B18: hsa-mir-645 (structured_RNA)
RNA: GGGAAAGCACGAUCACGGCAAGCUUAUGGGUGUACGAAGUUUCAGCUGUGGCCUGGGGGUUGAGGACCCCUGCUCUAGCUGAAGCUUCGUGCAC
B18: the binding signal with U1A came out at 0.013 z-score; in the assay with LIN28A, 0.488 z-score; in the assay with CIRBP, 1.96 z-score; in the assay with DHX36, 0.504 z-score.

B19: hsa-mir-491 (structured_RNA)
RNA: GGGAAGGAGAACUGCAUGGAUUUAGCCCGGUGUACGAAGUUUCAGCUGAGGAGUAGAACACUCCUUAGCUGAAGCUUCGUGCAC
Turning to B19, the binding signal is 0.0241 z-score with U1A, -0.231 z-score with LIN28A, -1.32 z-score with CIRBP and 1.02 z-score in the assay with DHX36.

B20: hsa-let-7d (structured_RNA)
RNA: GGGAACAAUAGGCGGAGCUUGUCAUAAUGGUGUACGAAGUUUCAGCAUAGUUUUAGGGCAGGGAUUUUGCCCACAAGGAGGUAACUAUGCUGAAGCUUCGUGCAC
Regarding B20, the binding signal came out at 0.0128 z-score with U1A, 3.3 z-score in the assay with LIN28A, 1.48 z-score with CIRBP and 1.4 z-score with DHX36.

B21: hsa-mir-1270 (structured_RNA)
RNA: GGGAACUGUGAAUUGACGACUCCGCAGGGGUGUACGAAGUUUCAGCGUGUUGGGUAUAAGUAACAGCUGAAGCUUCGUGCAC
Turning to B21, the binding signal with U1A was 0.0158 z-score; with LIN28A, 0.647 z-score; with CIRBP, 0.245 z-score; in the assay with DHX36, -1.24 z-score.

B22: hsa-mir-9500 (structured_RNA)
RNA: GGGACGACUGUCGCGAACCUGAACACUUGGUGUACGAAGUUUCAGCCCACAUAGGAGGGACAGCGGCCUUUCCAACAGGGCUGAAGCUUCGUGCAC
Take B22: the binding signal with U1A is 0.0143 z-score; with LIN28A, -1.72 z-score; with CIRBP, 0.347 z-score; in the assay with DHX36, -0.00321 z-score.
